Results reported in ChEMBL document CHEMBL3526014, “Correlation between bilirubin glucuronidation and estradiol-3-gluronidation in the presence of model UDP-glucuronosyltransferase 1A1 substrates/inhibitors” (Drug Metab Dispos, 2011).

Tests used:
[1] = biological target: T1, UDP-glucuronosyltransferase 1A1 (Homo sapiens, UniProt P22309); assay: Inhibition of human recombinant UGT1A1 expressed in HEK293 cells assessed as reduction in bilirubin glucuronidation by LC-MS/MS method; type: ADME, cell-based
T1 sequence (P22309 whole entry): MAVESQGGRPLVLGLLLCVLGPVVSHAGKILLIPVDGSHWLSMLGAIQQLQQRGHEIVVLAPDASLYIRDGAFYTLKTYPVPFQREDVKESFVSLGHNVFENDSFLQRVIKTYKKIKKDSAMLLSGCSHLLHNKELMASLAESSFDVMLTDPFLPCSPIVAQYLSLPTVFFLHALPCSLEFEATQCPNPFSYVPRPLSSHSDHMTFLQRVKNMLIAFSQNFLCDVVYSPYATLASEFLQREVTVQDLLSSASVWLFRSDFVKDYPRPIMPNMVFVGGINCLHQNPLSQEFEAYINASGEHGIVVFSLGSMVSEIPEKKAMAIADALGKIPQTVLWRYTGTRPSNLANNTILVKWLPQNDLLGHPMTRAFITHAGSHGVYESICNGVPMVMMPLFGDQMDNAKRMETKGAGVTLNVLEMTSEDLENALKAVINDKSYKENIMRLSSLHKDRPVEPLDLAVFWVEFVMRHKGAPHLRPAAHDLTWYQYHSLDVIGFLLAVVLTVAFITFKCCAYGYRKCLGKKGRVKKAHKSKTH

[2] = biological target: T1, UDP-glucuronosyltransferase 1A1; assay: Inhibition of human recombinant UGT1A1 expressed in HEK293 cells assessed as reduction in estradiol 3-glucuronidation by LC-MS/MS method; type: ADME, cell-based

IC50 [1]: 27 µM
IC50 [2]: 12 µM
Structure (SMILES): COc1ccccc1OCCNCC(O)COc1cccc2[nH]c3ccccc3c12 (configuration not stated) [CARVEDILOL]
